Measured values reported in patent US20040146519A1 (published 2004).

Experiments:
HLA-A*2402 = HLA-A*2402 (human); experiment: inhibition of 125I probe peptide, purified HLA
HLA-A*0101 [1] = biological target: T1, HLA-A*0101 (human); experiment: inhibition of 125I probe peptide, purified HLA
T1 construct: also called HLA-A1

HLA-A*0101 [2] = biological target: T1, HLA-A*0101; experiment: inhibition of 125I probe peptide, purified HLA; remark: listed apart in the source
HLA-A*0202 = biological target: T2, HLA-A*0202 (human); experiment: competition with 125I probe peptide for purified HLA
T2 construct: purified HLA molecule

HLA-A*1101 = biological target: T3, HLA-A*1101 (human); experiment: as above
T3 construct: purified HLA molecule

HLA-B*5401 = HLA-B*5401 (human); experiment: inhibition of 125I probe peptide, purified HLA
HLA-B*5301 = HLA-B*5301 (human); experiment: inhibition of 125I probe peptide, purified HLA
HLA-B*0702 = HLA-B*0702 (human); experiment: inhibition of 125I probe peptide, purified HLA
HLA-A*6801 = biological target: T4, HLA-A*6801 (human); experiment: competition with 125I probe peptide for purified HLA
T4 construct: purified HLA molecule

HLA-A*0301 = biological target: T5, HLA-A*0301 (human); experiment: as above
T5 construct: purified HLA molecule

HLA-DRB1*0701 = biological target: T6, HLA-DRB1*0701 (human); experiment: inhibition of 125I probe peptide, purified HLA
T6 construct: also called DR7

B1: CEA.177Y2F9 (peptide)
peptide: LYWVNNQSF
notes: CEA analog peptide
HLA-A*2402
  IC50: 63 nM

B2: CEA.418.D3, 10 AA (peptide)
peptide: PTDSPSYTYY
notes: CEA analog peptide; also called 57.0104
HLA-A*0101 [1]
  IC50: 1.1 nM
HLA-A*0101 [2]
  IC50: 1.1 nM

B3: CEA.419.D3 (peptide)
peptide: TIDPSYTYY
notes: CEA analog peptide; also called 57.0012
HLA-A*0101 [1]
  IC50: 3.1 nM
HLA-A*0101 [2]
  IC50: 3.1 nM

B4: CEA.569L2 (peptide)
peptide: YLCGIQNSV
notes: analog of CEA.569
HLA-A*0202
  IC50: 24 nM

B5: CEA.101.F9 (peptide)
peptide: IYPNASLLF
notes: CEA analog peptide
HLA-A*2402
  IC50: 2.2 nM

B6: CEA.656.K9 (peptide)
peptide: FVSNLATGK
notes: analog of CEA.656
HLA-A*1101
  IC50: 207 nM

B7: CEA.632.F1, 8 AA (peptide)
peptide: FPQQHTQI
notes: CEA analog peptide
HLA-B*5401
  IC50: 185 nM

B8: CEA.383.D3 (peptide)
peptide: VTDNDVGPY
notes: CEA analog peptide; also called 57.001
HLA-A*0101 [2]
  IC50: 4.1 nM

B9: CEA.318.F10 (peptide)
peptide: VYAEPPKPFF
notes: CEA analog peptide
HLA-A*2402
  IC50: 27 nM

B10: CEA.632.F1, 10 AA (peptide)
peptide: FPQQHTQVLF
notes: CEA analog peptide
HLA-B*5301
  IC50: 47 nM

B11: CEA.234.F9 (peptide)
peptide: LYGPDAPTF
notes: CEA analog peptide
HLA-A*2402
  IC50: 63 nM

B12: CEA.6.F1I10 (peptide)
peptide: FPPHRWCIPI
notes: CEA analog peptide
HLA-B*0702
  IC50: 98 nM
HLA-B*5401
  IC50: 222 nM

B13: CEA.87.D3 (peptide)
peptide: QQDTPGPAY
notes: CEA analog peptide; also called 57.0004
HLA-A*0101 [2]
  IC50: 56.8 nM

B14: CEA.687L2 (peptide)
peptide: ALVGIMIGV
notes: analog of CEA.687
HLA-A*0202
  IC50: 63 nM

B15: CEA.624.F9 (peptide)
peptide: QYSWRINGF
notes: CEA analog peptide
HLA-A*2402
  IC50: 109 nM

B16: CEA.10.Y2F9 (peptide)
peptide: RYCIPWQRF
notes: CEA analog peptide
HLA-A*2402
  IC50: 191 nM

B17: CEA.652.F9 (peptide)
peptide: TYACFVSNF
notes: CEA analog peptide
HLA-A*2402
  IC50: 8.6 nM

B18: CEA.418.D3, 9 AA (peptide)
peptide: PTDSPSYTY
notes: CEA analog peptide; also called 57.0011
HLA-A*0101 [2]
  IC50: 37.9 nM

B19: CEA.419.V2 (peptide)
peptide: TVSPSYTYYR
notes: analog of CEA.419
HLA-A*6801
  IC50: 8.6 nM

B20: CEA.419.V2K10 (peptide)
peptide: TVSPSYTYYK
notes: analog of CEA.419
HLA-A*0301
  IC50: 69 nM

B21: CEA.58.F1I10 (peptide)
peptide: FPQHLFGYSI
notes: CEA analog peptide
HLA-B*5301
  IC50: 143 nM

B22: CEA.240.D3 (peptide)
peptide: PTDSPLNTSY
notes: CEA analog peptide; also called 57.0103
HLA-A*0101 [1]
  IC50: 266 nM
HLA-A*0101 [2]
  IC50: 266 nM

B23: CEA.305 (peptide)
peptide: DTGLNRTTVTTITVY
HLA-DRB1*0701
  IC50: 2840 nM

Like-named read-outs stand apart in the source and are kept apart here.
